Source: US20060088531A1

Key:
[1] = target: Collagen-Related Peptide (CRP); assay: ligand binding assay on CRP-coated wells, hD1D2-CaM at 10 µg/ml, no scFv
[2] = target: Collagen-Related Peptide (CRP); assay: ligand binding assay on CRP-coated wells, hD1D2-CaM at 2.5 µg/ml, no scFv
[3] = target: Collagen-Related Peptide (CRP); assay: ligand binding assay on CRP-coated wells, hD1D2-CaM at 1.0 µg/ml, no scFv

Question: Which results are given for “hD1D2-CaM (from UniProt Q9HCN6 21-205; P0DP23 2-149) (receptor)”?
Answer: mean absolute absorbance [1]: 0.265; mean absolute absorbance [2]: 0.477; mean absolute absorbance [3]: 0.26
